# Test results from ChEMBL document CHEMBL1143554, “4-phenoxypiperidines: potent, conformationally restricted, non-imidazole histamine H3 antagonists” (J Med Chem, 2005).
# Chains of the proteins cited; added tags and fusions are not shown. Lines headed by an entry give the natural chain unless they say otherwise; changes in a name come on top.
# UniProt Q9Y5N1: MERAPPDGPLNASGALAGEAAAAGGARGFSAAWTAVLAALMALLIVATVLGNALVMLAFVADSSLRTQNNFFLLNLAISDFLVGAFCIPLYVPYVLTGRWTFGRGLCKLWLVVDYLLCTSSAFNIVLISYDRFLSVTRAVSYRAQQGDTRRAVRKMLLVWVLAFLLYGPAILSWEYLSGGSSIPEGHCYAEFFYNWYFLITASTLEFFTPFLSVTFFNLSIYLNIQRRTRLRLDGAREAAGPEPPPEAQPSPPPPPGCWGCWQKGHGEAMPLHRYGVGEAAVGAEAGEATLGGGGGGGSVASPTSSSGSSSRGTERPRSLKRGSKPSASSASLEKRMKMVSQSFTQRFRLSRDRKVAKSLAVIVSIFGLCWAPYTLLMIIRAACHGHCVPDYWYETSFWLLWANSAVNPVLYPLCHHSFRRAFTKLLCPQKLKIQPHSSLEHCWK
# Target: Histamine H3 receptor (Homo sapiens, UniProt Q9Y5N1)
# Assay: Mean binding affinity for human H3 receptor
row,Ki,Compound
1,0.0282 µM,CC(C)N1CCC(Oc2ccc(C#N)cc2)CC1
2,4.27 µM,CN1CCC(Oc2ccc(C#N)cc2)CC1
3,5.37 µM,N#Cc1ccc(OC2CCN(Cc3ccccc3)CC2)cc1
